Membrane permeability of cyclic peptides

Data: CycPeptMPDB; original report Ahlbach et al. 2015, doi:10.4155/fmc.15.78.

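The data file gives no further conditions (lipid, pH, time, direction or concentration), and values from different papers need not be comparable. Other peptides of the study may be missing here. Entries at the database's floor value (log10 P of -10) are not listed.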

PAMPA measures passive passage through an artificial lipid membrane.
P is given in units of 10^-6 cm/s (from log10 values with two decimals); larger means faster passage.

Listed for C=CC[C@H]1OC(=O)CCNC(=O)[C@H](C)N(C)C(=O)[C@H](C(C)C)N(C)C(=O)[C@H]([C@@H](C)CC)NC(=O)[C@@H]2CCCN2C1=O: PAMPA 0.51 × 10^-6 cm/s.
Listed for CCC(C)[C@@H]1OC(=O)[C@H](CCC(N)=O)N(C)C(=O)[C@H](C(C)C)NC(=O)[C@@H]2CCCCN2C(=O)[C@H]([C@@H](C)CC)NC(=O)[C@H](CCC(N)=O)N(C)C(=O)[C@H](C(C)C)N(C)C(=O)CNC(=O)[C@@H]2CCCN2C(=O)[C@H](Cc2ccccc2)NC1=O (stereo not given in full): PAMPA 0.0004 × 10^-6 cm/s.
Listed for CC[C@H](C)[C@H]1OC(=O)[C@H](C(C)C)N(C)C(=O)[C@@H](C(C)C)OC(=O)[C@H](C(C)C)N(C)C(=O)[C@@H](C(C)C)OC(=O)[C@H](C(C)C)N(C)C1=O: PAMPA 2.2 × 10^-6 cm/s.
Listed for CC(C)[C@H]1C(=O)O[C@H](C(C)C)C(=O)N(C)[C@@H](C)C(=O)O[C@H](C(C)C)C(=O)N(C)[C@@H](C(C)C)C(=O)O[C@H](C(C)C)C(=O)N1C: PAMPA 3.5 × 10^-6 cm/s.
Listed for CC[C@H](C)[C@@H]1NC(=O)[C@@H]2CCCN2C(=O)[C@@H](CC(O)CCl)OC(=O)CCNC(=O)[C@H](C)N(C)C(=O)[C@H](C(C)C)N(C)C1=O (stereo not given in full): PAMPA 0.079 × 10^-6 cm/s.
Listed for CC(C)[C@@H]1NC(=O)[C@H]([C@@H](C)O)N(C)C(=O)[C@H](C(C)C)NC(=O)[C@H]([C@@H](C)O)N(C)C(=O)[C@H](C(C)C)NC(=O)CNC(=O)[C@@H](Cc2ccccc2)N(C)C(=O)[C@H](C(C)C)NC(=O)[C@H](CO)NC(=O)[C@H](C(C)C)N(C)C(=O)[C@H](CO)N(C)C(=O)[C@H](C(C)C)NC(=O)CNC(=O)[C@@H](C)N(C)C1=O: PAMPA 0.058 × 10^-6 cm/s.
Listed for CC[C@H](C)[C@H]1OC(=O)[C@H](C(C)C)N(C)C(=O)[C@@H]([C@@H](C)CC)OC(=O)[C@H](C(C)C)N(C)C(=O)[C@@H]([C@@H](C)CC)OC(=O)[C@H](C(C)C)N(C)C1=O: PAMPA 1 × 10^-6 cm/s.
Listed for CC[C@H](C)[C@H]1NC(=O)[C@@H](NC(=O)[C@@H](CC(C)C)NC)[C@@H](C)OC(=O)[C@H](Cc2ccc(OC)cc2)N(C)C(=O)[C@@H]2CCCN2C(=O)[C@H](CC(C)C)NC(=O)[C@@H](C)C(=O)[C@H](C(C)C)OC(=O)C[C@@H]1O: PAMPA 1.3 × 10^-6 cm/s.
Listed for CC[C@H](C)[C@@H]1NC(=O)[C@@H]2CCCN2C(=O)[C@@H](CC(C)C)OC(=O)CCNC(=O)[C@H](C)N(C)C(=O)[C@H](C(C)C)N(C)C1=O: PAMPA 5.1 × 10^-6 cm/s.
Listed for CC[C@H](C)[C@H]1OC(=O)[C@H](C(C)C)N(C)C(=O)[C@@H](C(C)C)OC(=O)[C@H](C(C)C)N(C)C(=O)[C@@H]([C@@H](C)CC)OC(=O)[C@H](C(C)C)N(C)C1=O: PAMPA 4.6 × 10^-6 cm/s.
Listed for CC[C@H](C)[C@@H]1NC(=O)[C@@H]2CCCN2C(=O)[C@@H](CC(C)C)OC(=O)CCNC(=O)[C@H](C)N(C)C(=O)[C@H](C(C)C)NC1=O: PAMPA 0.22 × 10^-6 cm/s.
Listed for CC(C)C[C@@H]1NC(=O)[C@H](Cc2ccccc2)NC(=O)[C@H](Cc2ccccc2)N(C)C(=O)[C@H](Cc2ccccc2)NC(=O)C(C)(C)NC(=O)[C@H](CC(C)C)N(C)C(=O)[C@@H]2[C@@H](C)CCN2C1=O: PAMPA 83 × 10^-6 cm/s.
Listed for CC(C)C[C@@H]1OC(=O)[C@H](C)NC(=O)[C@H](C(C)(C)O)OC(=O)[C@H](C)N(C)C(=O)[C@@H](C)NC(=O)[C@@H](Cc2ccccc2)N(C)C1=O: PAMPA 6.5 × 10^-6 cm/s.
Listed for C/C=C/C[C@@H](C)[C@@H](O)[C@H]1C(=O)N[C@@H]([C@@H](C)O)C(=O)N(C)CC(=O)N(C)[C@@H](CC(C)C)C(=O)N[C@@H](C(C)C)C(=O)N(C)[C@@H](CC(C)C)C(=O)N[C@@H](C)C(=O)N[C@H](C)C(=O)N(C)[C@@H](CC(C)C)C(=O)N(C)[C@@H](CC(C)C)C(=O)N(C)[C@@H](C(C)C)C(=O)N1C: PAMPA 2.8 × 10^-6 cm/s.
Listed for CC(C)[C@H]1C(=O)O[C@H](C(C)C)C(=O)N(C)[C@@H](C(C)C)C(=O)O[C@H](C(C)C)C(=O)N(C)[C@@H](C(C)C)C(=O)O[C@H](C(C)C)C(=O)N1C: PAMPA 19 × 10^-6 cm/s.
Listed for CC(C)C[C@@H]1NC(=O)[C@H](Cc2ccccc2)N(C)C(=O)[C@H](C)NC(=O)c2ccccc2NC(=O)[C@H](Cc2ccc(O)cc2)N(C)C1=O: PAMPA 6 × 10^-6 cm/s.
Listed for CC(C)C[C@@H]1NC(=O)[C@H](Cc2ccccc2)NC(=O)[C@H](Cc2ccccc2)N(C)C(=O)[C@H](Cc2ccccc2)NC(=O)C(C)(C)NC(=O)[C@H](CC(C)C)N(C)C(=O)[C@@H]2CCCN2C1=O: PAMPA 65 × 10^-6 cm/s.
Listed for CC(C)[C@@H]1NC(=O)[C@@H]2CCCN2C(=O)[C@@H](CC(O)CCl)OC(=O)CCNC(=O)[C@H](C)N(C)C(=O)[C@H](C(C)C)N(C)C1=O (stereo not given in full): PAMPA 0.04 × 10^-6 cm/s.

The last 2 entries again:

{"smiles": "CC(C)C[C@@H]1NC(=O)[C@H](Cc2ccccc2)NC(=O)[C@H](Cc2ccccc2)N(C)C(=O)[C@H](Cc2ccccc2)NC(=O)C(C)(C)NC(=O)[C@H](CC(C)C)N(C)C(=O)[C@@H]2CCCN2C1=O", "PAMPA (10^-6 cm/s)": "65"}
{"smiles": "CC(C)[C@@H]1NC(=O)[C@@H]2CCCN2C(=O)[C@@H](CC(O)CCl)OC(=O)CCNC(=O)[C@H](C)N(C)C(=O)[C@H](C(C)C)N(C)C1=O", "stereo": "stereo not given in full", "PAMPA (10^-6 cm/s)": "0.04"}